{"source": "patent US8048888B2", "about": "“Anti-proliferative combination therapy using certain platinum-based chemotherapeutic agents and EGFR inhibitors or pyrimidine analogues” (Agennix AG, priority 2005, dated 2011)", "key": {"[1]": {"tested_on": "SKBR-3 cell line", "assay": "SRB assay, simultaneous combination treatment with JM-118 and herceptin, 96 hours", "format": "cell-based, human"}, "[2]": {"tested_on": "SKBR-3 cell line", "assay": "SRB assay, sequential: herceptin 120 hours, followed by JM-118 24 hours", "format": "cell-based, human", "conditions": "Herceptin first"}}}
{"substance": "Herceptin: monoclonal antibody that binds HER2", "values": [{"measurement": "Growth inhibition", "setting": "[1]; JM118 0 + Herceptin 0.0020 μM", "value": 41.4, "unit": "%"}, {"measurement": "Growth inhibition", "setting": "[1]; JM118 0 + Herceptin 0.0039 μM", "value": 44.7, "unit": "%"}, {"measurement": "Growth inhibition", "setting": "[1]; JM118 0 + Herceptin 0.0078 μM", "value": 48.0, "unit": "%"}, {"measurement": "Growth inhibition", "setting": "[1]; JM118 0 + Herceptin 0.0156 μM", "value": 51.4, "unit": "%"}, {"measurement": "Growth inhibition", "setting": "[1]; JM118 0 + Herceptin 0.0313 μM", "value": 54.8, "unit": "%"}, {"measurement": "Growth inhibition", "setting": "[2]; JM118 0 + Herceptin 0.0020 μM", "value": 28.1, "unit": "%"}, {"measurement": "Growth inhibition", "setting": "[2]; JM118 0 + Herceptin 0.0039 μM", "value": 30.9, "unit": "%"}, {"measurement": "Growth inhibition", "setting": "[2]; JM118 0 + Herceptin 0.0078 μM", "value": 34.1, "unit": "%"}, {"measurement": "Growth inhibition", "setting": "[2]; JM118 0 + Herceptin 0.0156 μM", "value": 37.4, "unit": "%"}, {"measurement": "Growth inhibition", "setting": "[2]; JM118 0 + Herceptin 0.0313 μM", "value": 41.1, "unit": "%"}]}
